Data on 1 molecule can be found in patent US20140106440A1, “ENHANCED ENZYMATIC CO2 CAPTURE TECHNIQUES ACCORDING TO SOLUTION PKA, TEMPERATURE AND/OR ENZYME CHARACTER” (CO2 SOLUTIONS INC., priority 2011, published 2014).

Structures are written as SMILES. This is a selection: effects in other tests are not listed, and their absence says nothing.

Experiment [1] in a line: Second-order kinetic rate constant of the reaction between alkanolamine and CO2 (no enzyme). The class given is physicochemical.
Experiment [2] concerns thermostable variant of hCA II ('5X' mutant, M5X). Briefly: CO2 absorption rate in stirred cell, alkanolamine solution with 5X CA (M5X) enzyme. The following applies: for kOV: 298 K.

As to `OCCN(CCO)CCO`, the “k2, second-order kinetic rate constant of the reaction between amine and CO2” value is listed as 2.3 m^3 kmol^−1 s^−1 in experiment [1] (amine concentration 1.0 kmol m^−3), 2.7 m^3 kmol^−1 s^−1 in experiment [1] (amine concentration 2.0 kmol m^−3) and 1.8 m^3 kmol^−1 s^−1 in experiment [1] (amine concentration 4.0 kmol m^−3). Besides, the “observed kOV” value in experiment [2] (100 mg/L M5X, aqueous amine, concentrations studied) lay in the range of 100 to 120 s⁻¹. In addition, the kOV in experiment [2] (alkanolamine concentration 1.0 kmol m^−3, M5X 50 mg/L) came to 82 s⁻¹; in experiment [2] (alkanolamine concentration 1.0 kmol m^−3, M5X 100 mg/L) it was 108 s⁻¹; in experiment [2] (alkanolamine concentration 1.0 kmol m^−3, M5X 400 mg/L), 226 s⁻¹; in experiment [2] (alkanolamine concentration 2.0 kmol m^−3, M5X 50 mg/L), 73 s⁻¹; in experiment [2] (alkanolamine concentration 2.0 kmol m^−3, M5X 100 mg/L) it was 115 s⁻¹; in experiment [2] (alkanolamine concentration 2.0 kmol m^−3, M5X 200 mg/L), 153 s⁻¹. In experiment [2] (alkanolamine concentration 2.0 kmol m^−3, M5X 400 mg/L), this molecule registered a kOV of 185 s⁻¹.
